Data published in US7256200B2, “Method and composition for potentiating an oplate analgesic” (The Board of Trustees of the University of Illinois, a body …, priority 2003, dated 2007).

Test system: opioid receptors
Conditions: morphine 10 μM; 10 μM forskolin, 250 μM 3-isobutyl-1-methylxanthine, 37° C., 15 minutes; p<0.001; FIG. 2

With `CN1CC[C@]23c4c5ccc(O)c4O[C@H]2[C@@H](O)C=C[C@H]3[C@H]1C5` [morphine] the “inhibition of cAMP accumulation” value was 63%.
